This assay addresses WDR5-MYC (Homo sapiens) (UniProt P61964+P01106). Put plainly: Disruption of WDR5/5-FAM-labelled MYC (261 to 267 residues)(unknown origin) interaction assessed as fold increase in activity incubated for 0.5 to 6 hrs by FP assay relative to control. As to conditions: time 0.5-6 hrs. Type of assay: protein assay. The method, boiled down:
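Fluorescence polarization with WDR5 and a reporter peptide probe from MYC MbIIIb residues E261–V267. Compounds and WDR5 were incubated for 30 to 360 min before reading. FP signal was recorded over varying compound concentrations and fitted to a hyperbolic function to give Ki. DMSO served as negative control, and free MYC peptide was the quality control.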

Protein sequences, listed by entry. Tags and fused reporters are not part of them. Lines headed by an entry give the natural chain unless they say otherwise; changes in a name come on top.
UniProt P01106: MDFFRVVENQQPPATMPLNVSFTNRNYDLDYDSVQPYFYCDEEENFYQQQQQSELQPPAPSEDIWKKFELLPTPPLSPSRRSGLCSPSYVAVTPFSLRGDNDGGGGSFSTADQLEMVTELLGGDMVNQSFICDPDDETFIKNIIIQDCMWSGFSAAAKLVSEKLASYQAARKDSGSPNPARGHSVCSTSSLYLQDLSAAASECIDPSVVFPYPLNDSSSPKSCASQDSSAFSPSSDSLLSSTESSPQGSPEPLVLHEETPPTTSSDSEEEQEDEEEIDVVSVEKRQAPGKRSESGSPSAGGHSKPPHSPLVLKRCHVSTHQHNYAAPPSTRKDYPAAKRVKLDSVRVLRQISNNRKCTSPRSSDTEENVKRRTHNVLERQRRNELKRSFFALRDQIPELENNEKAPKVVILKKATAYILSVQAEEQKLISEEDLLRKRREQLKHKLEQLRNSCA

For `CNC(=O)c1ccc(-c2nc(N)sc2SC#N)cc1`, the fold change (FC) stood at 1.4.
The figure for `N#CSc1sc(N)nc1-c1ccc(O)cc1` is 1.4.

The record behind these values is ChEMBL document CHEMBL5584277, “Identification of 5-Thiocyanatothiazol-2-amines Disrupting WDR5-MYC Protein-Protein Interactions” (ACS Med Chem Lett, 2024).
